From PMC3988539 (Neuropsychopharmacology : official publication of the …, 2013)

Chains of the proteins cited; added tags and fusions are not shown.
UniProt P31652, whole entry: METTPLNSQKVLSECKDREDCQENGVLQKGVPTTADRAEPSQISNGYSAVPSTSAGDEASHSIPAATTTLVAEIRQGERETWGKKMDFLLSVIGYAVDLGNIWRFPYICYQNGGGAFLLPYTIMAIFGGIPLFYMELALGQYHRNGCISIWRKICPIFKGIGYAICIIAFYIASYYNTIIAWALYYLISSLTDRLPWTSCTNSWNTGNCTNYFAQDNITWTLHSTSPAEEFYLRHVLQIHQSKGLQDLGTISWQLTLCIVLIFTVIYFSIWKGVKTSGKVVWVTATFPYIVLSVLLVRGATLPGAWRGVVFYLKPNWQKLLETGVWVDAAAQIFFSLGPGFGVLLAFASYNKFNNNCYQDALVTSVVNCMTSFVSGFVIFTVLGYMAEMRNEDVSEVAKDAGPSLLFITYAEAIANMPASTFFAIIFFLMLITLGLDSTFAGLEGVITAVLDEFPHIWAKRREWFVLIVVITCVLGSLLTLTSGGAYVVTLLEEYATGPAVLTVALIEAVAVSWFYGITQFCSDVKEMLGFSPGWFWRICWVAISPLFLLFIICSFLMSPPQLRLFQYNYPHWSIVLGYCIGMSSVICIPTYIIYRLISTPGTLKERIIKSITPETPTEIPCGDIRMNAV

Biological target: SERT (Rattus norvegicus, UniProt P31652)
Assay: In vitro [3H]5-HT release from rat brain synaptosomes
Settings: read-out: Emax of 5-HT release

**Q.** `CCN[C@@H](C)Cc1cccc(C(F)(F)F)c1` [d-fenfluramine, (+)-N-ethyl-1-[3-(trifluoromethyl)phenyl]propan-2-amine hydrochloride] was tested. Which Emax did it give?
**A.** 100%

Structures can show the parent of a compound that is named as a salt.
